Source: paper PMC12526156, “Optimization of the Macrocyclic Tetrapeptide [D-Trp]CJ-15,208 to Prevent Stress-Induced Relapse of Cocaine-Seeking Behavior” (Molecules, 2025)

By UniProt entry, the sequences of proteins in these tests, tags left out. Where a name states a change or a piece, a line headed by the entry shows the natural chain unless it says otherwise.
UniProt P41145: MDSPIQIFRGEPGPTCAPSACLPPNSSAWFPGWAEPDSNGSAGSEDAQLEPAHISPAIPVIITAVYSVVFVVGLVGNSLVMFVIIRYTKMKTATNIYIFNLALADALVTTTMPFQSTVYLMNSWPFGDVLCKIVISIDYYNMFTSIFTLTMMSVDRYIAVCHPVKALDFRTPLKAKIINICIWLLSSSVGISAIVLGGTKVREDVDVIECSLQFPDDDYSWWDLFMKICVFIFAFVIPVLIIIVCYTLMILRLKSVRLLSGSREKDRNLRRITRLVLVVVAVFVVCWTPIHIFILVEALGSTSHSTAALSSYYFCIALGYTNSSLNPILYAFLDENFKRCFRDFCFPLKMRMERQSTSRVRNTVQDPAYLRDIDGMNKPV

Target: hKOR (Homo sapiens, UniProt P41145)
Assay: KOR cAMP assay using GloSensor-22F, agonist mode (KOR-CHO-GLO cells)
Assay type: cell-based
Settings: read-out: approximate IC80 concentration; inhibition of forskolin-stimulated cAMP

Substance: (±)-trans-3,4-Dichloro-N-methyl-N-[2-(1-pyrrolidinyl)cyclohexyl]benzeneacetamide
- IC80: 10 nM
